# In PubChem BioAssay AID588590 (National Center for Advancing Translational Sciences (NCATS), 2011):
# Chains of the proteins cited; added tags and fusions are not shown. Lines headed by an entry give the natural chain unless they say otherwise; changes in a name come on top.
# UniProt Q9UNA4: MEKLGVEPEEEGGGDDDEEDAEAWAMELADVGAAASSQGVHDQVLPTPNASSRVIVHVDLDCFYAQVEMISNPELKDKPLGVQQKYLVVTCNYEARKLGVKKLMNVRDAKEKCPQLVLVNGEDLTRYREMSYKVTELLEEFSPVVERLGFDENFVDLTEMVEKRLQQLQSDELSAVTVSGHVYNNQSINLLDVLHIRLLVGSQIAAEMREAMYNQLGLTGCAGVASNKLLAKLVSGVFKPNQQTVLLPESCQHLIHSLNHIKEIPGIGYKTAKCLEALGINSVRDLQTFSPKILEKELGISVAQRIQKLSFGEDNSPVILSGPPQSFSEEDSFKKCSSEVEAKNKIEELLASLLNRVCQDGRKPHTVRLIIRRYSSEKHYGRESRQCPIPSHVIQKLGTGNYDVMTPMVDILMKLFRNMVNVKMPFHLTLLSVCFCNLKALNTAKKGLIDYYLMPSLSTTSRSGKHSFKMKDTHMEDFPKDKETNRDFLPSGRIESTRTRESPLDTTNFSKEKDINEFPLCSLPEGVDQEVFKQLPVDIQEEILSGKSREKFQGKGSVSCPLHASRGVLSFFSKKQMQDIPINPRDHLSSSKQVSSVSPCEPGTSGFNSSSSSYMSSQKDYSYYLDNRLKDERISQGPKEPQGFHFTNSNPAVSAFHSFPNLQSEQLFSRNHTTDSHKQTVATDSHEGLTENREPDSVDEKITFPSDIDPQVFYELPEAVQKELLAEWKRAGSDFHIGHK
# Only a part is listed here, and it is no random draw. Inconclusive results are not listed. Where a call stands in place of a potency, no number is given. Active and inactive are the calls of the source. Calls come from the whole dose curve; as a rule, active = well fitted inhibition curve with a large enough effect; inconclusive = small, poorly fitted or top-dose-only effect, or another doubt; inactive = no such curve, though single readings can be large or run the other way.
# Target: DNA polymerase iota (Homo sapiens) (UniProt Q9UNA4)
# Test: qHTS for Inhibitors of Polymerase Iota
# Conditions: Pol iota fluorescent replication assay, 10 min; series mostly up to 115 µM
# Potency is the fitted concentration of half-maximal effect.
row,SMILES,Potency
1,CCOC(=O)c1ccc(NC(=O)C(C)(CCl)SC)cc1 (stereo not drawn),inactive
2,O=C(OC1CN2CCC1CC2)c1cccc([N+](=O)[O-])c1 (stereo not drawn),inactive
3,CCOP(=O)(Nc1cccc2cccnc12)OCC,inactive
4,CCC(C)N(CC(C)C)C(=S)SC(NC(C)=O)C(Cl)(Cl)Cl (stereo not drawn),inactive
5,COP1(=S)c2c(C)nn(CCC#N)c2N=C(c2ccc(F)cc2)N1C (stereo not drawn),inactive
6,O=C(COc1ccccc1)OC1CN2CCC1CC2 (stereo not drawn),inactive
7,O=C(Nc1ccncc1[N+](=O)[O-])c1ccc([N+](=O)[O-])cc1[N+](=O)[O-],inactive
8,CCOC(=O)Nc1cccc([As](=O)(O)O)c1,inactive
9,O=[N+]([O-])c1ccc(Nc2ccc(Oc3ccc([N+](=O)[O-])cc3[N+](=O)[O-])cc2)c([N+](=O)[O-])c1,inactive
10,O=P(Nc1ccccn1)(c1cccc2ccccc12)c1cccc2ccccc12,inactive
11,Cc1cc(SC(NC=O)C(Cl)(Cl)Cl)ncn1 (stereo not drawn),inactive
12,CC1CCNP(=O)(N(CCCl)CCCl)O1 (stereo not drawn),inactive
13,CCOC(=O)Nc1ccc([As](=O)(O)O)c(O)c1,inactive
14,CCCCOc1ccc(C(=O)NCC2(N3CCCCC3)CCCCC2)cc1OC,inactive
15,Cc1cc(SC(NC(=O)c2ccccc2)C(Cl)(Cl)Cl)nc(C(C)C)n1 (stereo not drawn),inactive
16,CC(C)c1ccc(OP(=O)(Nc2ccccn2)Oc2ccccc2F)cc1 (stereo not drawn),inactive
17,COC(=O)C1(C)COP(=O)(N2CCCCCC2)OC1 (stereo not drawn),inactive
18,O=Cc1ccc(NCCCl)cc1,inactive
19,ClCCSc1nnc(-c2cccnc2)o1,inactive
20,O=C(OC1CN2CCC1CC2)c1cccc2[nH]cnc12 (stereo not drawn),inactive
21,CCN(CC)C(=S)SC(NC=O)C(Cl)(Cl)Cl (stereo not drawn),inactive
22,CC(C)NC(=O)NP(=O)(Oc1ccccc1)Oc1ccccc1,inactive
23,COc1cc(C(=O)NCC2(N3CCOCC3)CCCCC2)ccc1OCC(C)C,inactive
24,O=[N+]([O-])c1ccc(-c2cc([N+](=O)[O-])c(O)c([N+](=O)[O-])c2)cc1,inactive

row,SMILES,Potency
1,Cc1ccc(OP(=O)(Nc2ccc([N+](=O)[O-])cn2)Oc2ccc(C)cc2)cc1,inactive
2,COc1ccc(N/C(=N/P(=O)(N2CCOCC2)N2CCOCC2)N2CCOCC2)cc1,inactive
3,O=[N+]([O-])c1cc(Oc2ccc([N+](=O)[O-])cc2C(F)(F)F)cc([N+](=O)[O-])c1,inactive
4,O=C(OC1CN2CCC1CC2)C12CC3CC(CC(C3)C1)C2 (stereo not drawn),inactive
5,Cc1cc(=O)[nH]c(N[N+](=O)[O-])n1,inactive
6,Cc1c2c(nc3ccccc13)SC(C(Cl)Cl)C2 (stereo not drawn),inactive
7,COc1ccc2nc(NP(=O)(c3ccccc3)c3ccccc3)sc2c1,inactive
8,COc1cc(I)ccc1[As](=O)(O)O,inactive
9,O=P1(N(CCCl)CCCl)OCCCN1CCCl (stereo not drawn),inactive
10,O=P1(N(CCCl)CCCl)Nc2ccccc2N1,inactive
11,CCCOP(=S)(Nc1nc(N)cc(=O)[nH]1)OCCC,inactive
12,COc1cc(C2NCCC3(OCCO3)C2(C)C)cc(OC)c1OC (stereo not drawn),inactive
13,CCOP(=O)(Nc1cccc2ccccc12)OCC,inactive
14,COc1cc(C(=O)NCC2(N3CCOCC3)CCCCC2)cc(Cl)c1OC(C)C,inactive
15,O=[As](O)(O)c1cccnc1,inactive
16,CS(=O)(=O)c1ccc(Cl)c(NC(=O)COC(=O)C(O)(c2ccccc2)c2ccccc2)c1,inactive
17,O=C(OC1CN2CCC1CC2)c1ccc(Cl)cc1 (stereo not drawn),inactive
18,CN(C(=O)Cc1ccc(Cl)c(Cl)c1)[C@@H]1CC[C@]2(CCCO2)C[C@H]1N1CCCC1,inactive
19,O=[As](O)(c1cccc(O)c1)c1cccc(O)c1,inactive
20,Cc1cccc(OCC(=O)OC2CN3CCC2CC3)c1 (stereo not drawn),inactive
21,NC(=O)Nc1ccc([As](=O)(O)O)cc1,inactive
22,CN(C(=O)Cc1ccc(Cl)c(Cl)c1)[C@H]1CC[C@@]2(CCCO2)C[C@@H]1N1CCCC1,inactive
23,N#CCCN(C(=O)COC(=O)C(O)(c1ccccc1)c1ccccc1)c1ccc(F)cc1,inactive
24,CCOP1(=S)c2c(C)nn(CCC#N)c2N=C(c2ccc(F)cc2)N1C (stereo not drawn),inactive

row,SMILES,Potency
1,CN(C(=O)Cc1ccccc1)[C@@H]1CC[C@]2(CCCO2)C[C@H]1N1CCCC1,inactive
2,CCOP1(=S)c2c(C)nn(CCC#N)c2N=C(c2ccccc2F)N1C (stereo not drawn),inactive
3,O=P(Nc1nccs1)(Oc1ccccc1)Oc1ccccc1,inactive
4,Nc1ccccc1[As](=O)(O)c1ccccc1,inactive
5,O=P1(Nc2ncccn2)COc2ccccc2OC1,inactive
6,O=P1(Nc2ccc(Br)cn2)COc2ccccc2OC1,inactive
7,NS(=O)(=O)c1cccc(NC(=O)COC(=O)C(O)(c2ccccc2)c2ccccc2)c1,inactive
8,O=[As](O)(c1cccs1)c1cccs1,inactive
9,Cc1ccc(OCC(=O)OC2CN3CCC2CC3)cc1 (stereo not drawn),inactive
10,Nc1cccc([As](=O)(O)c2ccccc2)c1,inactive
11,Cc1nn(-c2ccccc2)c2c1P(=O)(N1CCOCC1)N(C)C(c1ccccc1)=N2 (stereo not drawn),inactive
12,COc1cc([N+](=O)[O-])ccc1[N+](=O)[O-],inactive
13,CC1CCC(C(C)C)C(OP(=O)(Nc2ccccn2)c2ccccc2)C1 (stereo not drawn),inactive
14,Cc1ccc(C(=O)OC2CN3CCC2CC3)cc1 (stereo not drawn),inactive
15,O=C(/C=C/c1ccccc1)OC1CN2CCC1CC2 (stereo not drawn),inactive
16,CCCC1OP(=O)(Nc2ccccc2)OCC1CC (stereo not drawn),inactive
17,CN(C)C1(CNC(=O)c2ccc(S(C)(=O)=O)cc2)CCCCC1,inactive
18,COc1ccccc1CNC(=O)COC(=O)C(O)(c1ccccc1)c1ccccc1,inactive
19,CC1(CBr)Cn2c(nc3ccccc3c2=O)S1 (stereo not drawn),inactive
20,CC(C)/C=N\N=C(\N)N[N+](=O)[O-],inactive
21,CN(C(=O)Cc1ccc(Cl)c(Cl)c1)[C@@H]1CCCC[C@H]1N1CCCC1,inactive
22,CN(CCCl)Cc1cc(Cl)c(NC2=NCCN2)c(Cl)c1,inactive
23,CCOP(=O)(Nc1ccc(C)cn1)OCC,inactive
24,O=P1(Nc2ccccn2)COc2ccccc2OC1,inactive

row,SMILES,Potency
1,CCC1=CC2Cc3nc4ccc(Cl)cc4c(N)c3C(C1)C2 (stereo not drawn),inactive
2,CCOP(=O)(NC(=NC(C)c1ccccc1)NC(C)c1ccccc1)OCC (stereo not drawn),inactive
3,Clc1n[nH]nc1-c1nn[nH][15n]1,inactive
4,CC(C)(C)C(=O)NC(Sc1ncccn1)C(Cl)(Cl)Cl (stereo not drawn),inactive
5,COc1cccc([N+](=O)[O-])c1[N+](=O)[O-],inactive
6,CC(C)C(=O)NC(Sc1ccccc1)C(Cl)(Cl)Cl (stereo not drawn),inactive
7,O=P(Nc1nccs1)(c1ccccc1)c1ccccc1,inactive
8,c1nnnn1CCn1cnnn1,inactive
9,O=[N+]([O-])c1ccc(O)c(/C=N/Nc2ccc([N+](=O)[O-])cc2[N+](=O)[O-])c1,inactive
10,O=[N+]([O-])c1ncn(CCn2cnc([N+](=O)[O-])n2)n1,inactive
11,CC(=O)NC(SC(=S)N(C)C)C(Cl)(Cl)Cl (stereo not drawn),inactive
12,O=[As](O)(c1ccccc1)c1ccc(O)cc1,inactive
13,Nc1ccc([As](=O)(O)c2ccc([N+](=O)[O-])cc2)cc1,inactive
14,C(Cc1nn[nH]n1)Cc1nn[nH]n1,inactive
15,O=C(OC1CN2CCC1CC2)c1cccc(Cl)c1 (stereo not drawn),inactive
16,O=P(Nc1ccccn1)(c1ccc(Br)cc1)c1ccc(Br)cc1,inactive
17,CN(C)C1(CNC(=O)c2ccc(Cl)c(S(N)(=O)=O)c2)CCCCC1,inactive
18,O=P(Nc1nc2ccccc2s1)(c1ccccc1)c1ccccc1,inactive
19,C[C@H]1OP(=O)(Oc2ccccc2)[C@H](O)[C@H](O)[C@H]1N=[N+]=[N-] (stereo partly drawn),inactive
20,COC(=O)c1cc2c(s1)N=C(c1ccccc1)N(C)P2(=O)N1CCOCC1 (stereo not drawn),inactive
21,Cc1ccc(OP(=O)(Nc2ccccn2)Oc2ccc(C)cc2)cc1,inactive
22,CC(=O)NC(SC(=S)N(CC(C)C)CC(C)C)C(Cl)(Cl)Cl (stereo not drawn),inactive
23,CN(C(=O)Cc1ccc(Cl)c(Cl)c1)[C@@H]1CCCC[C@@H]1N1CCCC1,inactive
24,O=C(OC1CN2CCC1CC2)c1ccccc1 (stereo not drawn),inactive

row,SMILES,Potency
1,CCC(=O)N1C2C3N(C(=O)CC)C1C1N(C(=O)CC)C(C(N1C(=O)CC)N3C(=O)CC)N2C(=O)CC,inactive
2,Cc1ccccc1OP(=O)(Nc1ccccn1)Oc1ccccc1C,inactive
3,CC(NC(=O)COC(=O)C(O)(c1ccccc1)c1ccccc1)c1ccccc1 (stereo not drawn),inactive
4,CN(C)C(=O)Oc1noc2ccccc12,inactive
5,O=c1c2cc([N+](=O)[O-])ccc2[nH]c2c([N+](=O)[O-])cc([N+](=O)[O-])cc12,active: 15.8 µM
6,CCNC(=S)/N=C(\N)N[N+](=O)[O-],inactive
7,O=C(NC1CCS(=O)(=O)C1)NP(=S)(Oc1ccccc1)Oc1ccccc1 (stereo not drawn),inactive
8,c1ccc(-c2nn[nH]n2)c(-c2nn[nH]n2)c1,inactive
9,O=[N+]([O-])c1cc([N+](=O)[O-])c2nc[nH]c2c1,inactive
10,Cc1ccc(NP(=O)(Oc2cccc(C)c2)Oc2cccc(C)c2)nc1,inactive
11,O=P1(N(CCCl)CCCl)OCCC2CCCCN21 (stereo not drawn),inactive
12,N#C/C(=C\c1ccc(N(CCBr)CCBr)cc1)C(N)=O,inactive
13,CC(=O)c1ccc(N2CC2c2ccncc2)cc1 (stereo not drawn),inactive
14,COC(=O)C1(C)COP(=O)(NCc2ccccc2)OC1 (stereo not drawn),inactive
15,Cc1ccccc1CN(C)C(=O)COC(=O)C(O)(c1ccccc1)c1ccccc1,inactive
16,C[C@@H]1C=CCP(=O)(Oc2ccccc2)O1 (stereo partly drawn),inactive
17,C[C@H]1OP(=O)(Oc2ccccc2)C[C@@H]2O[C@@H]21 (stereo partly drawn),inactive
18,CC(=O)Nc1ccc([As](=O)(O)O)c(O)c1,inactive
19,CC(=O)Nc1ccc(Oc2c([N+](=O)[O-])cc([N+](=O)[O-])cc2[N+](=O)[O-])cc1,inactive
20,O=P1(Nc2nc3ccc(Cl)cc3s2)COc2ccccc2O1 (stereo not drawn),inactive
21,CCc1cc(O)c([N+](=O)[O-])c(C)c1[N+](=O)[O-],inactive
22,CC(C)(C)C(=O)NC(Sc1ccccc1)C(Cl)(Cl)Cl (stereo not drawn),inactive
